Values of other authors in patent publication US9617230B2, “Creatine prodrugs, compositions and methods of use thereof” (Farmington Pharma Development, priority 2014, dated 2017).

Settings: ALS; cited from earlier work

**Q.** With Nc1nc2ccc(OC(F)(F)F)cc2s1 [riluzole] as the molecule, how does the extension of survival read?
**A.** about three
